Values joined by “and” are separate entries in the source; they are usually repeats but may differ in a detail not shown here. Identical values can stand only once.
Columns and labels:
D(4) dopamine receptor = D(4) dopamine receptor (Homo sapiens, UniProt P21917); details: Ki (nM)
D(3) dopamine receptor = D(3) dopamine receptor (Rattus norvegicus, UniProt P19020)

Sequences of proteins named here, by UniProt entry; tags and fusion partners are left off.
UniProt P21917, whole entry: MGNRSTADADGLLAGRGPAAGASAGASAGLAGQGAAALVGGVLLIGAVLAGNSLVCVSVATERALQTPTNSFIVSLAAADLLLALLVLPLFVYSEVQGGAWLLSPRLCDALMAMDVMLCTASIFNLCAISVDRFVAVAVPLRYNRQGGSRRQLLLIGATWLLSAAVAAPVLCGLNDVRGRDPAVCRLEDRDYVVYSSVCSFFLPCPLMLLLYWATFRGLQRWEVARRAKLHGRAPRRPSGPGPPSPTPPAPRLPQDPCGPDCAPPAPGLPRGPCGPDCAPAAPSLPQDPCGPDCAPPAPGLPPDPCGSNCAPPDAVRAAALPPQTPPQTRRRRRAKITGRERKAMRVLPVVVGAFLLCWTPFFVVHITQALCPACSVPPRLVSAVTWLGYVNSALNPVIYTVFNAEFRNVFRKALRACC
UniProt P19020, whole entry: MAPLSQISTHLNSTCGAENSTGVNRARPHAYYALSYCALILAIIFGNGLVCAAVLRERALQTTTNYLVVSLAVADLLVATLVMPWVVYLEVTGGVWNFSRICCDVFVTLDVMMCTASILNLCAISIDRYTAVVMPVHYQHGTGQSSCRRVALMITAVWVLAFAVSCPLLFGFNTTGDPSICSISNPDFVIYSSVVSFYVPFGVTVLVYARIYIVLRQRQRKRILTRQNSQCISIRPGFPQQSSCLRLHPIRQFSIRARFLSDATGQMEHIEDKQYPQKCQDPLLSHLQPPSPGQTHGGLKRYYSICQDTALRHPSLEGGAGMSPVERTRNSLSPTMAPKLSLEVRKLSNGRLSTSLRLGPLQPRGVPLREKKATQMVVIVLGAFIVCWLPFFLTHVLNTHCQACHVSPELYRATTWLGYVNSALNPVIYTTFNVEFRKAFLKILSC

Structure (SMILES)	Ki (D(4) dopamine receptor)	Ki (D(3) dopamine receptor)
CCN1CCCC1CNC(=O)c1cc(S(N)(=O)=O)ccc1OC (configuration not stated) [N-[(1-ethylpyrrolidin-2-yl)methyl]-2-methoxy-5-sulfamoylbenzamide]	21.5 nM and 20 nM	–
CNc1cc(OC)c(C(=O)N[C@H]2CCN(Cc3ccccc3)[C@H]2C)cc1Cl [Nemonapride]	–	0.06 nM and 0.05 nM

— BindingDB's records for PubMed 8301592 (Washington University, 1994)
